Target: empty AAV9 capsid (adeno-associated virus 9) (adeno-associated virus 9) (UniProt Q6JC40)

Chains of the proteins cited; added tags and fusions are not shown. Residues count along the entry.
UniProt P02745, 23-245: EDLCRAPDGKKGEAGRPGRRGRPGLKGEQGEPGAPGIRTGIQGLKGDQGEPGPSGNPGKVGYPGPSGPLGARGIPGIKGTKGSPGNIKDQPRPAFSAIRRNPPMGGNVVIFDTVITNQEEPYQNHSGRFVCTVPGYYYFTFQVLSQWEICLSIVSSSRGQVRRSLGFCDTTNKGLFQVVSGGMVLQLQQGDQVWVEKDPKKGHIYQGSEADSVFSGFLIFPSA
Complement C1q (subcomponent subunits A, B and C), UniProt P02746, 28-253: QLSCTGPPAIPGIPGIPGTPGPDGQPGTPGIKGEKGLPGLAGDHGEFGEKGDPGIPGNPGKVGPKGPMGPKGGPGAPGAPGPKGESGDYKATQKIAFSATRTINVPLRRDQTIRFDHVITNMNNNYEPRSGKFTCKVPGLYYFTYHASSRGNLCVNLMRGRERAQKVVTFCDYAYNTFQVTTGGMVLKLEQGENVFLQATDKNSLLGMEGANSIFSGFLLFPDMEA
Complement C1q (subcomponent subunits A, B and C), UniProt P02747, 29-245: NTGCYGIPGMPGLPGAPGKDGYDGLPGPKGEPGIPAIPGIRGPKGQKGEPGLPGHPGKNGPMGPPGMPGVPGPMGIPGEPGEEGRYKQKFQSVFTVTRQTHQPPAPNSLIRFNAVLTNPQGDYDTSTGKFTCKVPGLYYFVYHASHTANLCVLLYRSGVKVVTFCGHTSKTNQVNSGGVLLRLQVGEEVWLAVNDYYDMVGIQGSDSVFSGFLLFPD

Complement C1q (subcomponent subunits A, B and C) (from UniProt P02745 23-245; P02746 28-253; P02747 29-245) (complex)
C3a generation (complement activation, C3a ELISA kit) after incubation of AAV9 capsids with complement activating sera of nine seropositive subjects: 10600 ng/mL | C3a generation (complement activation, C3a ELISA kit) after incubation of AAV9 capsids with the same sera depleted of IgG/IgM: 1530 ng/mL

From paper PMC10282828
